Test results reported in ChEMBL document CHEMBL1142268, “Histone deacetylase inhibitors: from bench to clinic” (J Med Chem, 2008).

Target: T1, Protein deacetylase HDAC6 (Homo sapiens, UniProt Q9UBN7)
T1 sequence (Q9UBN7 whole entry): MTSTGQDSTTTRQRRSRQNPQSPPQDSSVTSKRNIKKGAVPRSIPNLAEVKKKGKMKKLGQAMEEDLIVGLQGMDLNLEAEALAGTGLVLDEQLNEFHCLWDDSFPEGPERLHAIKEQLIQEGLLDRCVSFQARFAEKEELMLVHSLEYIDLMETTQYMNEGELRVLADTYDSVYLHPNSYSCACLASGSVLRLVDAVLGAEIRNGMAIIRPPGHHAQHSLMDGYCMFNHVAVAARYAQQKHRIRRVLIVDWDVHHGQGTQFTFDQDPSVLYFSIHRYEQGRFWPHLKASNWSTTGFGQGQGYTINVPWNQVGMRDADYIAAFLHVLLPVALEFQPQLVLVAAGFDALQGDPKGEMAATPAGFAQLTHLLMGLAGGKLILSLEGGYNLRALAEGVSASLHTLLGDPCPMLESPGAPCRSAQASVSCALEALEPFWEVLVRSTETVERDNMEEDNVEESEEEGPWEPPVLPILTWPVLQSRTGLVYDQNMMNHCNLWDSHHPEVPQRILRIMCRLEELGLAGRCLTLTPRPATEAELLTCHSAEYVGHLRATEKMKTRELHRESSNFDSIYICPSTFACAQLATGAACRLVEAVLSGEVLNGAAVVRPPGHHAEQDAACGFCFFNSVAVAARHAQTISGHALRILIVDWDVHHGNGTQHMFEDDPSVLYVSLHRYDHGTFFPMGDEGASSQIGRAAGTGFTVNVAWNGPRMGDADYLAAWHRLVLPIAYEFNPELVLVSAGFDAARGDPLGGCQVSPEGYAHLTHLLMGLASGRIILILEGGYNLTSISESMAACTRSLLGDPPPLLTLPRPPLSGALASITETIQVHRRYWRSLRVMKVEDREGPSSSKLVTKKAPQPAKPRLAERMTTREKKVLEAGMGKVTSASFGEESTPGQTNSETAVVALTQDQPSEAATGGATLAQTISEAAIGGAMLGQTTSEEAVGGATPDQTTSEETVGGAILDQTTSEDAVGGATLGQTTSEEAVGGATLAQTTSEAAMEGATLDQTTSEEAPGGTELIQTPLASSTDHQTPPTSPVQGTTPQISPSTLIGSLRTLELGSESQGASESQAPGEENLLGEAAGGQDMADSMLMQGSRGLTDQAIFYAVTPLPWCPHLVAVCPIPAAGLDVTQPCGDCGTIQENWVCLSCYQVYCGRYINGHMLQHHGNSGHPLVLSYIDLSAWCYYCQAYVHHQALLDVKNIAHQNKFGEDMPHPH

- IC50: > 20 µM
SMILES: CC(=O)Nc1ccc(C(=O)Nc2cc(-c3cccs3)ccc2N)cc1
